This assay concerns the target T1, G9a (Homo sapiens, UniProt Q96KQ7).
T1 sequence (Q96KQ7 1-1210): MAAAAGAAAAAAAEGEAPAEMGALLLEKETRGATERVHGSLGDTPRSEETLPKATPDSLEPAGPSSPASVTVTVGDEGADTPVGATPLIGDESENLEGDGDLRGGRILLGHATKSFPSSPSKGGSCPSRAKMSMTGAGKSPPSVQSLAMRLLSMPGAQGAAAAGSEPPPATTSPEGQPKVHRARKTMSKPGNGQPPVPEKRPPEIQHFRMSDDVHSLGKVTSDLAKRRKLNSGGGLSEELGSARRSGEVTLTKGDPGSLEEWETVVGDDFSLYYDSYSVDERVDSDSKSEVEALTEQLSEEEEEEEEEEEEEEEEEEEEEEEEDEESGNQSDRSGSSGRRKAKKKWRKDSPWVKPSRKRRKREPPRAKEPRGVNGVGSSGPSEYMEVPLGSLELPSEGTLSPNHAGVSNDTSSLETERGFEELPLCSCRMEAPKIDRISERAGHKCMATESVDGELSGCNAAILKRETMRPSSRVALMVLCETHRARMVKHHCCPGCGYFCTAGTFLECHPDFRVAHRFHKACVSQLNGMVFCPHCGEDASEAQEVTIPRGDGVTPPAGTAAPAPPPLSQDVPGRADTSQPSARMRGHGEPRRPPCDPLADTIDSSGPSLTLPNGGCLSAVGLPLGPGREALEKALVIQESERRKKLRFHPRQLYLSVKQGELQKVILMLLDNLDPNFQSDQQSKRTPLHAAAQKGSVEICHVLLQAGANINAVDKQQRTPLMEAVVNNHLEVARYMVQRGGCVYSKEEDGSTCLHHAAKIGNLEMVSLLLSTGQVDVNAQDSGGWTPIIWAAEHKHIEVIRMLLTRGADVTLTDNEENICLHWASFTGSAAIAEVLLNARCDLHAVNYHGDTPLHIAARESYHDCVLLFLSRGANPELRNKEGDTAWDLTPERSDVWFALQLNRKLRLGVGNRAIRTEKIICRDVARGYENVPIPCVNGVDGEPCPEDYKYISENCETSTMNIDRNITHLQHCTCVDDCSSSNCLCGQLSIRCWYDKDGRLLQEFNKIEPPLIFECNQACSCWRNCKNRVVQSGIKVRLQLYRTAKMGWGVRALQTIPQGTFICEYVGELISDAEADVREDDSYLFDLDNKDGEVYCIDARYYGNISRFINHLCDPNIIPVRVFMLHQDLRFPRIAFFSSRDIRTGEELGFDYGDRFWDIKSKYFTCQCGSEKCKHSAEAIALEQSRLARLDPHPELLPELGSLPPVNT
Put plainly: G9a AlphaScreen. The assay is classed as biochemical.

Turning to `COc1cc2c(NC3CCN(C)CC3)nc(N3CCCN(C)CC3)nc2cc1OCCCN(C)C` [Compound 8], the IC50 turned out to be 289 nM.

(Values after paper PMC2825141 (Journal of medicinal chemistry, 2009).)
